Experimental data reported in ChEMBL document CHEMBL4334546, “Discovery of N-(Indazol-3-yl)piperidine-4-carboxylic Acids as RORγt Allosteric Inhibitors for Autoimmune Diseases” (ACS Med Chem Lett, 2020).

Test system: Mus musculus
Assay: In vivo allosteric inhibition of RORgammaT in C57BL/6 mouse assessed as reduction in Bcl-xL expression in thymocytes administered as single dose measured after 2 hrs by TaqMan gene expression analysis
Type: functional, organism-based

Compound: O=C(O)c1ccc(-c2nn(C(=O)c3c(Cl)cccc3C(F)(F)F)c3cccnc23)c(F)c1
- inhibition: Dose-dependent effect
